Data reported in ChEMBL document CHEMBL1133467, “Identification of novel inhibitors of urokinase via NMR-based screening” (J Med Chem, 2000).

Target: Urokinase-type plasminogen activator (Homo sapiens, UniProt P00749)
Assay: Inhibitory activity against Urokinase-type plasminogen activator

IC50: 10 µM
SMILES: Nc1nc2cc(O)ccc2[nH]1
